Measured values as given in patent US8367360B2, “Method of screening for inhibitors of tau protein phosphororylation by tyrosine kinase c-Abl” (Proteome Sciences plc, priority 2004, dated 2013).

What was measured:
Assay in all cases: cell-based or functional assay
[1] = target: V5 tagged human tau mutant Y197-only (human) (UniProt P10636)
[2] = target: V5 tagged human tau mutant Y18-only (human) (UniProt P10636)
[3] = target: V5 tagged human tau mutant Y29-only (human) (UniProt P10636)
[4] = target: V5 tagged human tau mutant Y394-only (human) (UniProt P10636)

Measured: tyrosine phosphorylation of immunoprecipitated tau (4G10 Western blot), CHO cells co-transfected with Syk (% of the level found with wild-type)

Syk tyrosine kinase (expressed from Syk cDNA in CHO cells) (from UniProt P43405 1-635) (enzyme)
20 to 25: [1] | [2] | [3] | [4]
